# Assay results from patent US12378251B2, “Triazolopyrimidine compound and salt, composition and use thereof” (SHANGHAI INSTITUTE OF MATERIA MEDICA, CHINESE ACADEMY OF …, priority 2019, dated 2025).
# Chains of the proteins cited; added tags and fusions are not shown.
# UniProt Q8TBC4, whole entry: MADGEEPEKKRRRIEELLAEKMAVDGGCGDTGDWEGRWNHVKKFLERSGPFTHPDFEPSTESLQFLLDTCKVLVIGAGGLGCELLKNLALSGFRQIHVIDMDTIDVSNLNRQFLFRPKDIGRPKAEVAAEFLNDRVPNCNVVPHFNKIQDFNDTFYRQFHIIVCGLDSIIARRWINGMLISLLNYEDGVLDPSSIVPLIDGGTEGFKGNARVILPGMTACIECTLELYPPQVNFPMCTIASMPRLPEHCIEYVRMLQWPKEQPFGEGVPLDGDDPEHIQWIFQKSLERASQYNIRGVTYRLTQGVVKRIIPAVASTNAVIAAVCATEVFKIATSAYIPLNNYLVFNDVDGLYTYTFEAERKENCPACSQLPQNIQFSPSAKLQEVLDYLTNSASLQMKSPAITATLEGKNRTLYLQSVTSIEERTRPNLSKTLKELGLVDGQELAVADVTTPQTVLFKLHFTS
# UniProt Q13564, whole entry partner: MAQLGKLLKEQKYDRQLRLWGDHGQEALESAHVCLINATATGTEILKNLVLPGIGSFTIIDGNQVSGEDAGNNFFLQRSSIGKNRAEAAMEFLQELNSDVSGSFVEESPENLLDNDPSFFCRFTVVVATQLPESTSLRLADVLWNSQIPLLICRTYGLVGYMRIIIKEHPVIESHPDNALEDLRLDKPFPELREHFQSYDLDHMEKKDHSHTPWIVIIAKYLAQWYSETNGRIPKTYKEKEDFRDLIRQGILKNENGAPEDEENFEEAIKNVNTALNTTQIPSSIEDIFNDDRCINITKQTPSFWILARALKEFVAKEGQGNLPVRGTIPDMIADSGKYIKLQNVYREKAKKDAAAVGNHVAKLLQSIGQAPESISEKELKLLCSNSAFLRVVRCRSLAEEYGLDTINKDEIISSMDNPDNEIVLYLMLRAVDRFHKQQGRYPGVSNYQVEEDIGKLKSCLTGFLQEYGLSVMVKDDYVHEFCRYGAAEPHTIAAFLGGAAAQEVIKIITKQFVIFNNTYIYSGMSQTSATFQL
# Columns and labels:
# [1] = biological target: NAE enzyme (human recombinant APPBP1/UBA3) (Homo sapiens (Human), UniProt Q8TBC4); experiment: Inhibition of NAE enzyme activity at the molecular level (HTRF); assay type: biochemical; settings: inhibition rate of NAE enzyme activity at 10 μM compound
# [2] = system: human colon cancer cells HCT-116; experiment: Inhibition of proliferation of HCT-116 cells (SRB method); assay type: cell-based; settings: read-out: HCT-116 IC50*, 72 h
# Procedure: The inhibitory effects of the compounds on the proliferation of human colon cancer cells HCT-116 were detected by a sulforodamine B (SRB) method. The specific steps were as follows: HCT-116 cells in the logarithmic phase were seeded into a 96-well culture plate at a suitable density with 90 μL per well. After overnight cultivation, the compounds at different concentrations were added to act for 72 h, and a solvent control group (negative control) was set. After 72 h of the compounds acting on the cells, the effects of the compounds on cell proliferation were detected using the SRB method as follows. The culture solution was discarded, and 100 μL/well of 10% trichloroacetic acid (TCA) pre-cooled at 4° C. was added, fixed at 4° C. for 1 h, then washed with distilled water for 5 times, and naturally dried in the air; 100 μL/well of SRB (4 mg/ml) solution prepared by 1% glacial acetic acid was added, stained at room temperature for 15 minutes; the supernatant was removed, washed with 1% acetic acid for 5 times, and air dried; 150 μl/well of Tris (10 mM) solution was added, then left at room temperature for 15 minutes; finally, a full-wavelength microplate enzyme-labeled instrument SpectraMax 190 was used to read with a measurement wavelength of 560 nm. The inhibition rate (%) of the compound on tumor cell growth was calculated by the following formula: [formula]
smiles,measurement,setting,value
CO[C@H]1Cc2ccccc2[C@H]1Nc1ncnc2c1nnn2C1CC(O)C(COS(N)(=O)=O)C1 (some centres unmarked),IR (10 μM),[1],98.3%
same,IC50,[2],< 0.01 µM
COCC(=O)N[C@@H]1Cc2ccccc2[C@H]1Nc1ncnc2c1nnn2C1CC(O)C(COS(N)(=O)=O)C1 (some centres unmarked),IR (10 μM),[1],0.84%
same,IC50,[2],> 100 µM
COCC(=O)N[C@H]1Cc2ccccc2[C@H]1Nc1ncnc2c1nnn2C1CC(O)C(COS(N)(=O)=O)C1 (some centres unmarked),IR (10 μM),[1],85.0%
same,IC50,[2],> 100 µM
CC(C)(C)OC(=O)N1CCC2(CC1)C[C@H](Nc1ncnc3c1nnn3C1CC(O)C(COS(N)(=O)=O)C1)c1ccccc12 (some centres unmarked),IR (10 μM),[1],96.0%
same,IC50,[2],< 0.01 µM
